Earlier results, collected in US20040254629A1, “Methods and apparatus for treatment of aneurysmal tissue” (priority 2003, published 2004).

Conditions: in vivo; cited from earlier work

NCCCC[C@H](N[C@@H](CCc1ccccc1)C(=O)O)C(=O)N1CCC[C@H]1C(=O)O [lisinopril]
elimination / clearance route: cleared as the intact compound in the kidney
